As usually defined, the stoichiometry N is a count of units in the complex or per binding partner.

The target of the test is reaction centre-light-harvesting 1-PufX complex (RC–LH1–PufX), monomeric core complex (Rba. sphaeroides (endogenous in strain 2.4.1 and its mutants)) (UniProt P0C0Y7). The experiment in a line: sucrose density gradient ultracentrifugation; membranes solubilised in 3% β-DDM, layered on a discontinuous 20-25% sucrose gradient with 20 mM HEPES and 0.03% β-DDM, 27,000 rpm (90,000 ×g) 40 h; bands of LH2, core monomer and core dimer quantified by densitometry (ImageJ) and absorption spectra; carotenoid strains grown photosynthetically or semi-aerobically; core dimer to monomers.

Substance “reaction centre-light-harvesting 1-PufX complex (RC–LH1–PufX), monomeric core complex (from UniProt P0C0Y7 1-260; P0C0Y8 1-282; P0C0Y9 1-308; P0C0X9 1-58; P0C0Y1 1-49; P13402 1-82)” displayed a percent of complexes in the dimeric state (ΔcrtA strain, spheroidene) of 82%; a percent of complexes in the dimeric state (ΔcrtB strain, no carotenoid; ΔcrtI strain, phytoene) of 42%; a stoichiometry N of 2.
